# Measured values reported in PubChem BioAssay (NCI).
#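 Interpolation was linear, between the two tested concentrations surrounding the appropriate level; five concentrations were tested over 48 hours in 96-well plates. GI50 = concentration required for 50% inhibition of growth. At the TGI there is no net growth.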
# Tests used:
# Test in all cases: inhibition of tumour cell growth, NCI panel, 48 h
# [1] = test system: 786-0 renal
# [2] = test system: A498 renal
# [3] = test system: A549 NSCLC
# [4] = test system: ACHN renal
# [5] = test system: BT-549 breast
# [6] = test system: CAKI-1 renal
# [7] = test system: CCRF-CEM leukemia
# [8] = test system: COLO 205 colon
# [9] = test system: DU-145 prostate
# [10] = test system: EKVX NSCLC
# [11] = test system: HCC-2998 colon
# [12] = test system: HCT-116 colon
# [13] = test system: HCT-15 colon
# [14] = test system: HL-60(TB) leukemia
# [15] = test system: HOP-62 NSCLC
# [16] = test system: HOP-92 NSCLC
# [17] = test system: HS 578T breast
# [18] = test system: HT29 colon
# [19] = test system: IGROV1 ovarian
# [20] = test system: K-562 leukemia
# [21] = test system: KM12 colon
# [22] = test system: LOX IMVI melanoma
# [23] = test system: M14 melanoma
# [24] = test system: MALME-3M melanoma
# [25] = test system: MCF7 breast
# [26] = test system: MDA-MB-231 breast
# [27] = test system: MDA-MB-435
# [28] = test system: MDA-N
# [29] = test system: MOLT-4 leukemia
# [30] = test system: NCI-H226 lung
# [31] = test system: NCI-H23 lung
# [32] = test system: NCI-H322M lung
# [33] = test system: NCI-H460 lung
# [34] = test system: NCI-H522 lung
# [35] = test system: NCI/ADR-RES ovarian
# [36] = test system: OVCAR-3 ovarian
# [37] = test system: OVCAR-4 ovarian
# [38] = test system: OVCAR-5 ovarian
# [39] = test system: OVCAR-8 ovarian
# [40] = test system: PC-3 prostate
# [41] = test system: RPMI-8226 leukemia
# [42] = test system: RXF 393 renal
# [43] = test system: SF-268 CNS
# [44] = test system: SF-295 CNS
# [45] = test system: SK-MEL-2 melanoma
# [46] = test system: SK-MEL-28 melanoma
# [47] = test system: SK-MEL-5 melanoma
# [48] = test system: SK-OV-3 ovarian
# [49] = test system: SN12C renal
# [50] = test system: SNB-19 CNS
# [51] = test system: SNB-75 CNS
# [52] = test system: SR leukemia
# [53] = test system: SW-620 colon
# [54] = test system: T-47D breast
# [55] = test system: TK-10 renal
# [56] = test system: U251 CNS
# [57] = test system: UACC-257 melanoma
# [58] = test system: UACC-62 melanoma
# [59] = test system: UO-31 renal
structure (smiles),measurement,setting,value
O=C(NCCC(F)([N+](=O)[O-])[N+](=O)[O-])NCCC(F)([N+](=O)[O-])[N+](=O)[O-],GI50,[1],0.904 µM
same,TGI,[1],11.6 µM
same,GI50,[2],12.8 µM
same,TGI,[2],89.4 µM
same,GI50,[3],10.8 µM
same,TGI,[3],31.9 µM
same,GI50,[4],2.14 µM
same,TGI,[4],9.44 µM
same,GI50,[5],4.18 µM
same,TGI,[5],32 µM
same,GI50,[6],2.63 µM
same,TGI,[6],7.03 µM
same,GI50,[7],2.75 µM
same,TGI,[7],29.6 µM
same,GI50,[8],1.95 µM
same,TGI,[8],4.21 µM
same,GI50,[9],11.6 µM
same,TGI,[9],25.8 µM
same,GI50,[10],3.6 µM
same,TGI,[10],29 µM
same,GI50,[11],14.5 µM
same,TGI,[11],36.3 µM
same,GI50,[12],5.48 µM
same,TGI,[12],25.4 µM
same,GI50,[13],3.33 µM
same,TGI,[13],34.7 µM
same,GI50,[14],0.947 µM
same,TGI,[14],3.35 µM
same,GI50,[15],12.7 µM
same,TGI,[15],36.5 µM
same,GI50,[16],4.64 µM
same,TGI,[16],21.4 µM
same,GI50,[17],18.3 µM
same,TGI,[17],62.5 µM
same,GI50,[18],4.52 µM
same,TGI,[18],32.6 µM
same,GI50,[19],3.86 µM
same,TGI,[19],11.8 µM
same,GI50,[20],0.837 µM
same,TGI,[20],35.4 µM
same,GI50,[21],11 µM
same,TGI,[21],47.6 µM
same,GI50,[22],8.57 µM
same,TGI,[22],41.5 µM
same,GI50,[23],4.62 µM
same,TGI,[23],25.6 µM
same,GI50,[24],3.46 µM
same,TGI,[24],19.4 µM
same,GI50,[25],9.43 µM
same,TGI,[25],42.7 µM
same,GI50,[26],14.7 µM
same,TGI,[26],35 µM
same,GI50,[27],2.14 µM
same,TGI,[27],8.51 µM
same,GI50,[28],1.65 µM
same,TGI,[28],5.15 µM
same,GI50,[29],3.01 µM
same,TGI,[29],29.4 µM
same,GI50,[30],20.3 µM
same,TGI,[30],55.4 µM
same,GI50,[31],14.4 µM
same,TGI,[31],51.2 µM
same,GI50,[32],22.1 µM
same,TGI,[32],62.2 µM
same,GI50,[33],9.89 µM
same,TGI,[33],> 100 µM
same,GI50,[34],1.19 µM
same,TGI,[34],14.2 µM
same,GI50,[35],8.33 µM
same,TGI,[35],59 µM
same,GI50,[36],6.38 µM
same,TGI,[36],24.6 µM
same,GI50,[37],11.6 µM
same,TGI,[37],57 µM
same,GI50,[38],22.7 µM
same,TGI,[38],47.9 µM
same,GI50,[39],9.02 µM
same,TGI,[39],53.2 µM
same,GI50,[40],12.6 µM
same,TGI,[40],29.2 µM
same,GI50,[41],1.81 µM
same,TGI,[41],6 µM
same,GI50,[42],9.29 µM
same,TGI,[42],40.4 µM
same,GI50,[43],16.7 µM
same,TGI,[43],67 µM
same,GI50,[44],17.3 µM
same,TGI,[44],35.9 µM
same,GI50,[45],17.1 µM
same,TGI,[45],37.2 µM
same,GI50,[46],13.7 µM
same,TGI,[46],51.3 µM
same,GI50,[47],5.76 µM
same,TGI,[47],22 µM
same,GI50,[48],27.3 µM
same,TGI,[48],63.2 µM
same,GI50,[49],14.2 µM
same,TGI,[49],32.1 µM
same,GI50,[50],25.3 µM
same,TGI,[50],57.2 µM
same,GI50,[51],11.9 µM
same,TGI,[51],50.4 µM
same,GI50,[52],0.568 µM
same,TGI,[52],4.67 µM
same,GI50,[53],2.48 µM
same,TGI,[53],34.5 µM
same,GI50,[54],3.33 µM
same,TGI,[54],15.7 µM
same,GI50,[55],2.37 µM
same,TGI,[55],18.8 µM
same,GI50,[56],19.5 µM
same,TGI,[56],58.8 µM
same,GI50,[57],12.8 µM
same,TGI,[57],28.1 µM
same,GI50,[58],7.77 µM
same,TGI,[58],23.5 µM
same,GI50,[59],4.75 µM
same,TGI,[59],19.1 µM
